Hits are enriched below; roughly 1.2% of the tested compounds scored in any of these assays.
Statin myotox sup = protects C2C12 myotubes from simvastatin toxicity. rescue of ATP level, % at 7.49 µM. 330,000 tested, 0.78% active. ATP luminescence, 48 h; scaled: DMSO 0, geranylgeraniol control 100;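 active = mean ATP rescue above about 67%, or every replicate alone reaching that limit, limit read from the data, passing the limit was not always enough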;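 also: myotubes were challenged with 10 µM simvastatin during compound exposure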
N-glyco inh = blocks N-linked glycosylation in D54 reporter cells; D54 ERlucT glycosylation luciferase reporter, 24 h; percent of 100 nM tunicamycin response; reporter increase, % at 12.5 µM; 360,000 tested, 0.23% active;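 active = mean luciferase reporter signal, scaled so untreated is 0 and the glycosylation-blocking control 100, at or above a set limit in every replicate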;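 also: luciferase carries N-glycosylation sites so blocking glycosylation raises the light; 0% = median of neutral control wells and 100% = median of 100 nM tunicamycin wells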
Yeast UUG start = modulators of start codon recognition fidelity in yeast; AID 602363; activity score, % at 18.7 µM; S. cerevisiae UUG-firefly luciferase reporter, luminescence/redox ratio; actives 0.13% (n = 350,000);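 active = replicate mean at a twofold rise or more, about +100% in these data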;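 note: firefly luciferase made from a UUG start codon reports start codon fidelity; reporter light over untreated wells divided by growth signal over untreated wells; some hits fall short of that in this replicate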
Cneo AK release = causes C. neoformans cell lysis; adenylate kinase release luminescence, 4 h; normalised: neutral wells 0, clomiphene wells 100; lysis activity, % at 15 µM; 360,000 tested, 0.2% active;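 active = mean lysis activity across replicates of at least 80%, whatever share of replicates individually reach that level; inactive = mean lysis activity below 80%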
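Material – Cryptococcus neoformans yeast cells · Quantity – 5 × 10^6 yeast cells/mL · Buffer or medium – YPD medium · Compound – single dose · Timing – 4 h static compound exposure, 37 °C, read 1 h post-reagent · Signal – adenylate kinase release luminescence · Read-out basis – lysis from increased AK signal · Benchmarks – Clomiphene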
miR-122 sensor = blocks miR-122 activity in Huh7 sensor cells. Huh7 miR-122 Renilla luciferase sensor, 48 h; neutral wells = 0, positive control = 100. activation (reporter increase), % at 12.5 µM. 340,000 tested, 0.3% active. AID 602342;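 active = mean replicate activation score at least 90 and every replicate individually at or above 90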;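 also: higher luciferase means less miR-122 activity so hits act as miR-122 inhibitors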
* = called active by the depositor; x = not tested or not shown; [ ] = another dose, or the depositor's remark.

(1) C[C@H](CO)N1C[C@H](C)[C@@H](CN(C)C(=O)Cc2ccccc2)Oc2cc(C#CC3CCCC3)ccc2S1(=O)=O
(2) C[C@@H]1CN([C@@H](C)CO)S(=O)(=O)c2ccc(C#CC3CC3)cc2O[C@H]1CN(C)CC1CCOCC1
(3) C[C@@H]1CN([C@@H](C)CO)S(=O)(=O)c2ccc(C#CC3CCCC3)cc2O[C@H]1CN(C)C(=O)Cc1ccccc1
(4) C[C@H]1CN([C@@H](C)CO)S(=O)(=O)c2ccc(C#CC3CC3)cc2O[C@H]1CN(C)Cc1cncnc1
(5) C[C@H](CO)N1C[C@H](C)[C@@H](CN(C)Cc2cncnc2)Oc2cc(C#CC3CCCC3)ccc2S1(=O)=O
(6) CC(C)C#Cc1cnc2c(c1)C(=O)N([C@@H](C)CO)C[C@@H](C)[C@@H](CN(C)Cc1ccccn1)O2

| Screen / compound no. | 1 | 2 | 3 | 4 | 5 | 6 |
| --- | --- | --- | --- | --- | --- | --- |
| Statin myotox sup | -11.3 | -83.9 | -29.0 | -2.5 | -15.7 | -2.6 |
| N-glyco inh | x | x | x | x | x | x |
| Yeast UUG start | -4.7 | 25.7 | -5.1 | x | x | -12.5 |
| Cneo AK release | 1.0 | 87.2* | 0.6 | x | 49.0 | -2.2 |
| miR-122 sensor | 23.3[16.7 µM] | 45.5[16.7 µM] | 108.1*[16.7 µM] | -3.8[16.7 µM] | 95.2*[16.7 µM] | 14.8[16.7 µM] |

(7) C[C@@H]1CN([C@@H](C)CO)C(=O)c2cc(NC(=O)Cc3cn(C)c4ccccc34)ccc2O[C@H]1CN(C)S(=O)(=O)c1cn(C)cn1
(8) O=C(NC(=S)N(CC1CCC1)CC1CCCO1)c1cccc([N+](=O)[O-])c1 (stereo not drawn)
(9) CN(O)/C=c1/ccc2c(n1)C(=O)C=CC=2
(10) C[C@@H]1CN([C@@H](C)CO)C(=O)c2cccc(NS(=O)(=O)c3ccccc3)c2O[C@@H]1CN(C)Cc1ccc(Cl)c(Cl)c1
(11) Cc1csc2nc(CNC(=O)c3cccc(C(F)(F)F)c3)cn12
(12) CN(C)C(=O)C[C@@H]1CC[C@H]2[C@@H](COC[C@H](O)CN2CC2CC2)O1

| Screen / compound no. | 7 | 8 | 9 | 10 | 11 | 12 |
| --- | --- | --- | --- | --- | --- | --- |
| Statin myotox sup | 4.7 | -5.9 | 92.9* | -15.8 | 108.7* | 1.9 |
| N-glyco inh | x | 1.5 | 9.1 | x | 0.8 | x |
| Yeast UUG start | 5.0 | x | -24.3 | -11.3 | x | x |
| Cneo AK release | 1.0 | x | -3.1 | -4.4 | x | -0.3 |
| miR-122 sensor | 4.8[16.7 µM] | 1.0 | -5.2 | -11.0[16.7 µM] | 13.4 | -1.8[16.7 µM] |

(13) COc1ccc(C2/C(=C(/O)c3ccccc3)C(=O)C(=O)N2CCO)cc1 (stereo not drawn)
(14) O=C1C(=O)N(CCO)C(c2ccccc2)/C1=C(\O)c1ccccc1 (stereo not drawn)
(15) COCCCN1C(=O)C(=O)/C(=C(/O)c2ccc(C)cc2)C1c1ccccc1 (stereo not drawn)
(16) COCCCN1C(=O)C(=O)/C(=C(/O)c2ccc(OC)cc2)C1c1cccc(OC)c1 (stereo not drawn)
(17) O=C(C[C@H]1CC[C@@H](NC(=O)Nc2cc(F)ccc2F)[C@@H](CO)O1)NCc1ccc2c(c1)OCO2
(18) NC12CC3CC(C1)CC(CO)(C3)O2

| Screen / compound no. | 13 | 14 | 15 | 16 | 17 | 18 |
| --- | --- | --- | --- | --- | --- | --- |
| Statin myotox sup | 87.2* | 11.8 | x | 125.1* | 2.3 | 110.9* |
| N-glyco inh | 3.6 | 0.4 | -0.8 | 0.5 | x | -0.1 |
| Yeast UUG start | -7.7 | 0.4 | -16.8 | x | 1.5 | x |
| Cneo AK release | -2.5 | -3.0 | 2.8 | x | 1.4 | x |
| miR-122 sensor | -1.6 | -2.4 | -7.1 | -4.9 | -8.2[16.7 µM] | -1.9 |

(19) NC12CC3CC(C1)CC(CC(=O)O)(C3)C2
(20) CO[C@@H]1CN(C)C(=O)c2cc(NS(=O)(=O)c3cccc(F)c3)ccc2OC[C@@H](C)N(C(=O)Cc2cccnc2)C[C@@H]1C
(21) C=CCC(O)(CCN1CCCCC1)c1ccccc1 (stereo not drawn)
(22) CCC(C)c1ccc(NC(=S)NCc2cccs2)cc1 (stereo not drawn)
(23) CC(C)(C)c1ccc(NC(=S)NCc2cccs2)cc1
(24) C[C@H](CO)N1C[C@H](C)[C@@H](CN(C)S(=O)(=O)c2cccs2)Oc2ccc(NS(=O)(=O)c3ccc(Cl)cc3)cc2C1=O

| Screen / compound no. | 19 | 20 | 21 | 22 | 23 | 24 |
| --- | --- | --- | --- | --- | --- | --- |
| Statin myotox sup | -6.3 | 3.9 | 88.3* | -9.0 | -8.6 | -11.4 |
| N-glyco inh | -0.5 | x | -0.6 | -1.3 | -0.9 | x |
| Yeast UUG start | -21.9 | x | -7.6 | -35.3 | x | 10.2 |
| Cneo AK release | 7.9 | 0.8 | 5.3 | -5.0 | x | 54.5 |
| miR-122 sensor | -3.5 | x | -1.7 | 173.9* | 56.1 | 15.4[16.7 µM] |

(25) CCOCc1cc(C)[nH]c(=O)c1C#N
(26) CCCC(=O)Nc1ccc2c(c1)OC[C@@H](C)N(Cc1cc(F)ccc1F)C[C@@H](C)[C@H](OC)CN(C)C2=O
(27) C[C@H]1CN([C@@H](C)CO)C(=O)Cc2cc(NC(=O)Nc3ccc(C(F)(F)F)cc3)ccc2O[C@@H]1CN(C)C(=O)Nc1ccc(F)cc1
(28) C[C@H]1CN([C@@H](C)CO)C(=O)Cc2cc(NC(=O)Nc3ccc(C(F)(F)F)cc3)ccc2O[C@H]1CN(C)C(=O)Nc1ccc(F)cc1
(29) C[C@H]1CN([C@@H](C)CO)C(=O)Cc2cc(NC(=O)Nc3ccccc3)ccc2O[C@@H]1CN(C)C(=O)Nc1ccc2c(c1)OCO2
(30) C[C@@H]1CN([C@H](C)CO)C(=O)Cc2cc(NS(=O)(=O)c3ccc(Cl)cc3)ccc2O[C@H]1CN(C)C(=O)Nc1ccc(C(F)(F)F)cc1

| Screen / compound no. | 25 | 26 | 27 | 28 | 29 | 30 |
| --- | --- | --- | --- | --- | --- | --- |
| Statin myotox sup | 99.4* | 41.1 | 2.9 | 83.0* | 4.0 | 28.0 |
| N-glyco inh | 2.5 | x | x | x | x | x |
| Yeast UUG start | -20.3 | 1.7 | 0.7 | -3.5 | 42.6 | 3.3 |
| Cneo AK release | -2.7 | 6.3 | -2.8 | -0.9 | 101.1* | 2.4 |
| miR-122 sensor | -0.1 | -21.1[16.7 µM] | 3.2[16.7 µM] | 1.1[16.7 µM] | 30.4[16.7 µM] | 2.4[16.7 µM] |

(31) C[C@@H]1CN([C@@H](C)CO)C(=O)Cc2cc(NC(=O)Nc3ccccc3)ccc2O[C@H]1CN(C)C(=O)Nc1ccc2c(c1)OCO2
(32) C[C@@H]1CN([C@H](C)CO)C(=O)Cc2cc(NS(=O)(=O)c3ccc(Cl)cc3)ccc2O[C@@H]1CN(C)C(=O)Nc1ccc(C(F)(F)F)cc1
(33) COc1cccc2cc(-c3csc(CCn4nc(C)cc4C)n3)c(=O)oc12
(34) C[C@@H]1CN([C@H](C)CO)C(=O)c2cc(NS(=O)(=O)c3ccc(Cl)cc3)ccc2O[C@@H]1CN(C)Cc1ccncc1
(35) COC(=O)c1cccc(N2C(=O)c3ccccc3S2(=O)=O)c1
(36) CN=C1c2ccccc2CN1c1cccc(C(=O)OC)c1

| Screen / compound no. | 31 | 32 | 33 | 34 | 35 | 36 |
| --- | --- | --- | --- | --- | --- | --- |
| Statin myotox sup | 15.3 | 19.6 | 89.1* | -19.8 | x | 99.8* |
| N-glyco inh | x | x | -1.6 | x | x | 2.7 |
| Yeast UUG start | 3.6 | -0.8 | -14.4 | -27.0 | -2.0 | -19.3 |
| Cneo AK release | -9.5 | -3.2 | 0.8 | -2.4 | -0.2 | -2.2 |
| miR-122 sensor | -7.4[16.7 µM] | 103.3*[16.7 µM] | 18.4 | 12.8[16.7 µM] | 1.7 | 0.0 |

Fetched one by one from the entries so far, 3 records:
(31) C[C@@H]1CN([C@@H](C)CO)C(=O)Cc2cc(NC(=O)Nc3ccccc3)ccc2O[C@H]1CN(C)C(=O)Nc1ccc2c(c1)OCO2
(34) C[C@@H]1CN([C@H](C)CO)C(=O)c2cc(NS(=O)(=O)c3ccc(Cl)cc3)ccc2O[C@@H]1CN(C)Cc1ccncc1
(35) COC(=O)c1cccc(N2C(=O)c3ccccc3S2(=O)=O)c1

| Screen / compound no. | 31 | 34 | 35 |
| --- | --- | --- | --- |
| Statin myotox sup | 15.3 | -19.8 | x |
| N-glyco inh | x | x | x |
| Yeast UUG start | 3.6 | -27.0 | -2.0 |
| Cneo AK release | -9.5 | -2.4 | -0.2 |
| miR-122 sensor | -7.4[16.7 µM] | 12.8[16.7 µM] | 1.7 |

Remaining list, next part
(37) C[C@H](CO)N1C[C@H](C)[C@@H](CN(C)C(=O)CN(C)C)Oc2ncc(-c3ccc(C#N)cc3)cc2C1=O
(38) C[C@@H]1CN([C@@H](C)CO)C(=O)c2cc(NC(=O)CCCCCC(=O)Nc3ccccc3N)ccc2O[C@@H]1CN(C)C(=O)NC1CCCCC1
(39) N#Cc1cc2[nH]c3ccccc3c2[n+](-c2ccc([N+](=O)[O-])cc2)c1N
(40) O=c1[nH]c2cc([N+](=O)[O-])cc(Cl)c2c2ccccc12
(41) CCN(CC)S(=O)(=O)c1cc(NS(=O)(=O)c2cc(Cl)ccc2Cl)ccc1C
(42) CCN(CC)S(=O)(=O)c1cc(NS(=O)(=O)c2cccs2)ccc1C
(43) COc1cc(Nc2c3c(nc4ccccc24)CCC3)cc(OC)c1OC
(44) C[C@@H]1CN([C@@H](C)CO)C(=O)c2cccc(NC(=O)C3CC3)c2O[C@H]1CN(C)Cc1ccc(C(=O)Nc2ccccc2N)cc1

| Screen / compound no. | 37 | 38 | 39 | 40 | 41 | 42 | 43 | 44 |
| --- | --- | --- | --- | --- | --- | --- | --- | --- |
| Statin myotox sup | 10.3 | 7.2 | 9.5 | x | x | 4.9 | -30.7 | -2.3 |
| N-glyco inh | x | x | 28.3* | 0.5 | -1.3 | 1.9 | 48.6* | x |
| Yeast UUG start | 1.1 | -10.3 | -3.9 | -14.4 | -7.2 | -26.8 | 10.7 | 4.3 |
| Cneo AK release | -1.7 | -2.6 | 2.3 | -2.3 | -0.1 | 8.1 | 0.5 | -1.6 |
| miR-122 sensor | 8.9[16.7 µM] | -18.6[16.7 µM] | 6.5 | x | 391.9* | 37.4 | 6.9 | 1.3[16.7 µM] |

Assay outcomes deposited in PubChem by Broad Institute.
